# Binding of CDR-mutated scFvs to a peptide of the spike HR2 region

Source: Engelhart et al. 2022 (doi:10.1038/s41597-022-01779-4), MIT Lincoln Laboratory and A-Alpha Bio; data file from the FLAb repository.

The target is the same throughout: PDVDLGDISGINAS, from the HR2 region of SARS-CoV-2 spike.

Parent scFv Ab-91: VL joined to VH by a (GGGGS)3 linker. Changes lie in the heavy chain CDRs alone.
VL: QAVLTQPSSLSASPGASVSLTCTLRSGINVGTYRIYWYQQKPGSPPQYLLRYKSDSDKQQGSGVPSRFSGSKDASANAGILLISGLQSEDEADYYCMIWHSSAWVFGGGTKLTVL
VH: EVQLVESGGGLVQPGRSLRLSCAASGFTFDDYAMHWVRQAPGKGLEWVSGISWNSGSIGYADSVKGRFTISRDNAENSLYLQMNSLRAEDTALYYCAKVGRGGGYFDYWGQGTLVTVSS

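Phage display of a naive human antibody library on the peptide gave the parent. Variants in AAYL51 differ from the parent at up to three CDR positions; double and triple changes were sampled at random. The assay is AlphaSeq: two haploid yeast populations carry antibody and antigen on their surface. The frequency of each diploid, read from paired DNA barcodes, reflects how well the two displayed proteins bind. Scores were corrected for input abundance and mapped to Kd with protein pairs of known affinity run in the same pool. Mating was done three times.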

Positions count from residue 1 of the parent VH; T28Y puts Y in place of T.
Affinities are written as log10 Kd with Kd in nM; a lower number is a better binder.
A mean of the replicates is given; it leaves out those without a signal.
A pair that was not seen in that replicate is written "n.d."; this usually means weak binding, but a binder can also be missed.

changes	log10 Kd (nM) by replicate	log10 Kd (nM), mean	empty controls
T28Y I51M G102C	n.d. / n.d. / 3.57	3.57	1 of 9 (4.41)
T28V F29Q D107V	4.65 / 6.80 / 5.85	5.77	6 of 9 (4.92)
G26A H35K G50P	4.73 / n.d. / 5.14	4.94	4 of 9 (4.97)
G26V K65Y Y108Q	n.d. / 5.91 / n.d.	5.91	4 of 9 (4.39)
N54G G59P G103V	n.d. / n.d. / n.d.	n.d.	2 of 9 (4.82)
G26P I51F N54V	n.d. / n.d. / n.d.	n.d.	0 of 9
W53R K65P G102D	n.d. / n.d. / n.d.	n.d.	1 of 9 (4.89)
T28A A61D V99Y	n.d. / n.d. / n.d.	n.d.	0 of 9
D31N D62W	1.85 / 1.77 / 1.54	1.72	3 of 9 (5.02)
G26Q H35C Y105H	4.52 / n.d. / n.d.	4.52	2 of 9 (4.52)
F29Y S55D V64L	4.41 / 6.42 / 5.31	5.38	3 of 9 (4.85)
F29H S63G Y108H	n.d. / n.d. / n.d.	n.d.	0 of 9
G26Y Y108A	1.33 / 1.11 / 0.07	0.84	1 of 9 (2.81)
Y32K V99P G104W	n.d. / n.d. / n.d.	n.d.	1 of 9 (3.96)
G50L S57P G100E	3.98 / n.d. / 4.90	4.44	3 of 9 (4.60)
G26Q D31I	n.d. / n.d. / n.d.	n.d.	0 of 9
F27C H35C	n.d. / n.d. / 4.10	4.10	1 of 9 (3.70)
S52M V64H G103E	n.d. / n.d. / n.d.	n.d.	0 of 9
A61F K65S D107L	n.d. / n.d. / n.d.	n.d.	0 of 9
T28I Y32T D107W	1.23 / 1.13 / 1.04	1.13	4 of 9 (4.69)
G26D K65S G100P	n.d. / n.d. / n.d.	n.d.	3 of 9 (4.05)
F29K A61Q G103P	1.30 / 1.12 / 0.46	0.96	2 of 9 (5.46)
T28A F29H G100P	4.76 / 4.62 / n.d.	4.69	6 of 9 (4.92)
Y32E A61S R101M	n.d. / n.d. / n.d.	n.d.	1 of 9 (3.71)
S52C I58Y G103V	n.d. / 5.50 / 5.27	5.39	5 of 9 (5.02)
D62R G102C Y108L	4.48 / 5.33 / n.d.	4.91	0 of 9
Y32W V64K Y108Q	n.d. / 6.00 / 4.28	5.14	3 of 9 (3.40)
N54F Y60A Y108K	n.d. / n.d. / n.d.	n.d.	0 of 9
G26C H35C G103C	3.38 / 3.59 / 3.80	3.59	7 of 9 (5.10)
F27A T28R G100V	n.d. / n.d. / n.d.	n.d.	1 of 9 (4.56)
M34V I51E V64M	4.33 / n.d. / n.d.	4.33	0 of 9
H35C I51G	n.d. / n.d. / n.d.	n.d.	0 of 9
I58C A61R D107G	n.d. / 5.38 / n.d.	5.38	0 of 9
F29M G59T G102I	n.d. / n.d. / n.d.	n.d.	0 of 9
S52A S57G G100I	n.d. / 3.94 / 4.25	4.09	0 of 9
I51A V64K	5.40 / 5.45 / 5.23	5.36	5 of 9 (5.25)
A33H D62R V99L	n.d. / n.d. / n.d.	n.d.	0 of 9
G50I S55N G56K	n.d. / 4.18 / n.d.	4.18	1 of 9 (4.02)
I51D N54H S57K	n.d. / 6.09 / 3.87	4.98	3 of 9 (4.49)
D31H M34W Y60Q	n.d. / n.d. / n.d.	n.d.	2 of 9 (3.30)
T28D H35P D62I	n.d. / n.d. / n.d.	n.d.	0 of 9
A61C V64Q G102Q	n.d. / n.d. / n.d.	n.d.	1 of 9 (5.10)
D31N G102L Y105C	n.d. / 2.85 / n.d.	2.85	0 of 9
G26I G50S N54A	n.d. / n.d. / n.d.	n.d.	2 of 9 (4.51)
D30W G50K D107Q	n.d. / n.d. / n.d.	n.d.	3 of 9 (4.61)
Y32I W53D S57L	5.82 / n.d. / n.d.	5.82	8 of 9 (4.80)
F27E Y60N G102H	n.d. / n.d. / n.d.	n.d.	2 of 9 (4.45)
A33I M34F G100T	5.73 / n.d. / n.d.	5.73	1 of 9 (4.41)
G26W I58G G100C	3.09 / n.d. / n.d.	3.09	0 of 9
F27R G59A K65F	4.97 / n.d. / n.d.	4.97	0 of 9
F29D A33M G56N	4.99 / n.d. / n.d.	4.99	0 of 9
G26P S55K R101H	n.d. / n.d. / n.d.	n.d.	1 of 9 (5.00)

Again, the first 4 entries without any signal:

changes	log10 Kd (nM) by replicate	log10 Kd (nM), mean	empty controls
N54G G59P G103V	n.d. / n.d. / n.d.	n.d.	2 of 9 (4.82)
G26P I51F N54V	n.d. / n.d. / n.d.	n.d.	0 of 9
W53R K65P G102D	n.d. / n.d. / n.d.	n.d.	1 of 9 (4.89)
T28A A61D V99Y	n.d. / n.d. / n.d.	n.d.	0 of 9

Nonspecific signal, from three strains lacking the peptide, appeared in 21% of pairings of library AAYL51, centred on 4.54 (5% of these signals below 3.26); values are not corrected for it. The control count says in how many pairings with the empty strains this scFv gave a signal, with their mean in brackets.
In this assay the parent's reference entry averaged 1.86; its copy inside this library read 0.88.